The entries are a selection whose mix differs from that of the whole data set. Results filed as inconclusive are left out. Activity calls are given as the source filed them. Calls follow the shape of the dose curve; as a rule, active = well fitted inhibition curve with a large enough effect; inconclusive = small, poorly fitted or top-dose-only effect, or effect the other way; inactive = flat fitted curve, though single readings scatter.
Assay: qHTS screen for small molecules that inhibit ELG1-dependent DNA repair in human embryonic kidney (HEK293T) cells expressing luciferase-tagged ELG1; also: nearly all actives have a fitted effect of over 55% in size
Conditions: HEK293T ELG1-luciferase reporter, luminescence, 16 h, DNA damage induced by 5-fluorouridine; at 46.1 µM (top of the series)
% is scaled to controls: 0 for no effect and ±100 for the full control effect.

| Structure (SMILES) | activity change, negative = inhibition |
| --- | --- |
| CCC(=O)N(c1ccccc1)C1(COC)CCN(CCc2cccs2)CC1 | inactive: -3.26% |
| CCC(=O)N(c1ccccc1)C1(COC)CCN(CCn2nnn(CC)c2=O)CC1 | inactive: 11.9% |

Reference: PubChem BioAssay AID504467 (National Center for Advancing Translational Sciences (NCATS), 2011)
